Assay: Solubility enhancement of MSU crystals in aqueous NaCl solution (Example 1)
Details: 2.5 mL enhancer + 2.5 mL NaCl solution, 16 h; control (water only) = 100%

SMILES | % vs control
OCc1ccccc1 [Benzyl alcohol] | 249%
C[S+](C)[O-] [Dimethyl sulfoxide] | 126%
CCCCCCCCCCCCCC(=O)OC(C)C [Isopropyl myristate] | 202%
CCCCCCCC/C=C\CCCCCCCC(=O)O [Oleic acid] | 286%

Reference: patent publication US20210077420A1, “Methods of Treatment of Gout” (priority 2017, published 2021)
